Literature values as cited in paper PMC10313070, “Design, in silico and pharmacological evaluation of a peptide inhibitor of BACE-1” (Frontiers in Pharmacology, 2023).

Tested on: Aβ levels
Set-up: method as in Wu et al., 2016
Conditions: ref Wu et al., 2016; cited from earlier work

pyrazinecarboxamide
Aβ levels in the rat brain: reduces Aβ levels
